These results are taken from patent US5667825A (Kellogg Company, priority 1996, dated 1997).

One data set has as its system Sprague Dawley rats. Briefly: Rat hemoglobin regeneration method, relative iron bioavailability (modified AOAC). The class given is in vivo. Conditions: ratio of slope of each diet to slope of ferrous sulfate. On the procedure: […]. The relative iron availability of various iron compounds in a ready-to-eat breakfast cereal was tested using a widely accepted method, commonly referred to as the rat hemoglobin regeneration method, (modified AOAC method for assessment of relative iron bioavailability), see Williams, S. ed. Official methods of analysis of the Association of Official Analytical Chemists, 14th ed. Arlington, Va. AOAC, 1984; Fritz, J. C. et al., Collaborative Study of rat hemoglobin repletion test for bioavailability of iron, AOAC 1974, 57: 513-517. The testing for relative bioavailability of the various iron compounds was carried out in a series of separate experiments. In each of these experiments, ferrous sulfate was used as the standard or control compound.
Sprague Dawley rats, individually housed in temperature and light controlled units, were fed an iron deficient diet obtained from Harland Tekland Laboratories for 24 days. […] After the 14 day test period, hemoglobin concentrations were determined for all animals.
The bioavailability of each iron source tested relative to ferrous sulfate, was calculated by comparing gain in hemoglobin with the iron concentration in the diet by the slope ratio procedure (Finney, D. J., Statistical methods in biological assay. 2nd ed. 1964; Amine et L., Biological assessment of available iron in food products, J. Agric. Food Chem. 1974, 22: 470-476.). […]

The conditions of data set [1]: adverse storage conditions; cited from earlier work.

For the compound `O=C([O-])CN(CCN(CC(=O)[O-])CC(=O)[O-])CC(=O)[O-].[Fe+3].[Na+]` [Ferric EDTA, sodium ferric ethylenediaminetetraacetic acid complex], the “Slope Ratio (bioavailability relative to ferrous sulfate)” value with Sprague Dawley rats is reported as 0.94. Besides, in data set [1], the “Stability on storage and cooking” value was “more stable under adverse storage conditions and is unaffected by cooking”.
